Test system: CSCC[C@H](N)C(=O)O
Assay: purified protein, by the assay type
Conditions: other: WT, L-Met varied, ATP 2 mM, 25 °C, pH 7.5

XcMetRS (WT) (Xanthomonas citri subsp. citri 306)
Km: 10.5 ± 0.9 µM

Source: article PMC8165550, “Molecular basis for diaryldiamine selectivity and competition with tRNA in a type 2 methionyl-tRNA synthetase from a Gram-negative bacterium” (The Journal of Biological Chemistry, 2021)
